From US20160158369A1, “PHARMACEUTICAL COMPOSITION FOR RESPIRATORY ADMINISTRATION” (SEIKAGAKU CORPORATION, priority 2013, published 2016)

Experiments:
[1] = Drug dissociation test: polysaccharide derivative in buffer solution, 36°C, 1 week, HPLC; format: physicochemical
Procedure: In the examples relating to drug dissociation test, the drug dissociation ratio was evaluated as described below.
Sodium dihydrogen phosphate dihydrate (780 mg (5.0 mmol)) was dissolved in 500 mL of distilled water to give a liquid A. Separately, disodium hydrogen phosphate dodecahydrate (1.79 g (5.0 mmol)) was dissolved in 500 mL of distilled water to give a liquid B. By mixing the liquid A and liquid B at ratio of 2:3, a phosphate buffer solution of pH 7.5 was prepared.
0.62 g (10 mmol) of boric acid and 0.75 g (10 mmol) of potassium chloride were weighed and dissolved in 500 mL of distilled water to give a liquid C. Separately, by diluting 0.1 N sodium hydroxide solution with distilled water (×10 dilution), a liquid D was prepared.
50 mL of the liquid C and 7 mL of the liquid D were added to a 100 mL mess flask, and according to dilution to 100 mL with distilled water, a borate buffer solution of pH 8.0 was prepared. Furthermore, 50 mL of the liquid C and 40 mL of the liquid D were added to a 100 mL mess flask, and according to mess-up to 100 mL with distilled water, a borate buffer solution of pH 9.0 was prepared.
Each polysaccharide derivative obtained from above was dissolved in a buffer solution at each pH so as to have a concentration of 5 mg/10 mL, and heated for 1 week in an incubator at 36° C. Then, the drug dissociation ratio during the incubation was evaluated every 24 hours by liquid chromatography (HPLC).
The evaluation was performed by measuring the ratio between the drug amount remained in a polysaccharide derivative and the dissociated drug amount according to use of a size exclusion chromatography column (manufactured by TOSOH, TSKgel α-6000, 7.8 mmI.D.×30 cm).
Detailed conditions for the liquid chromatography are as follows.
Analysis time: 40 minutes
Solution for elution: acetonitrile (for HPLC):physiological saline=1:2
Detector: UV detector (240 nm)

[2] = rat, in vivo, inhaled or intranasal
[3] = Persistent property of drug in pulmonary tissue of normal rat after intratracheal administration
[4] = Blood kinetics (plasma drug concentration) in normal rat after intratracheal administration; settings: betamethasone in plasma
[5] = rat, in vivo, inhaled or intranasal; remark: listed apart in the source

Chondroitin Sulfate Introduced with 21-Glycyl-Betamethasone [Compound x]
Dissociation ratio (%/day) ([1]; pH 7.4, 36°C): 3.1 %/day
drug dissociation ratio ([1]; pH 7.4, 36°C, day 0): 1.1%
drug dissociation ratio ([1]; pH 7.4, 36°C, day 1): 5.7%
drug dissociation ratio ([1]; pH 7.4, 36°C, day 2): 9.3%
drug dissociation ratio ([1]; pH 7.4, 36°C, day 3): 11.0%
drug dissociation ratio ([1]; pH 7.4, 36°C, day 4): 15.4%
drug dissociation ratio ([1]; pH 7.4, 36°C, day 5): 19.6%
drug dissociation ratio ([1]; pH 7.4, 36°C, day 6): 22.1%
drug dissociation ratio ([1]; pH 7.4, 36°C, day 7): 22.0%
Dissociation ratio (%/day) ([1]; pH 8.0, 36°C): 7.2 %/day
drug dissociation ratio ([1]; pH 8.0, 36°C, day 0): 4.3%
drug dissociation ratio ([1]; pH 8.0, 36°C, day 1): 14.4%
drug dissociation ratio ([1]; pH 8.0, 36°C, day 2): 23.5%
drug dissociation ratio ([1]; pH 8.0, 36°C, day 3): 29.3%
drug dissociation ratio ([1]; pH 8.0, 36°C, day 4): 37.8%
drug dissociation ratio ([1]; pH 8.0, 36°C, day 5): 44.7%
drug dissociation ratio ([1]; pH 8.0, 36°C, day 6): 48.7%
drug dissociation ratio ([1]; pH 8.0, 36°C, day 7): 50.6%

Chondroitin Sulfate Introduced with 21-Isoleucyl-Betamethasone [Compound xi]
drug dissociation ratio ([1]; pH 7.4, 36°C, day 0): 0.5%
drug dissociation ratio ([1]; pH 7.4, 36°C, day 1): 0.2%
drug dissociation ratio ([1]; pH 7.4, 36°C, day 2): 0.2%
drug dissociation ratio ([1]; pH 7.4, 36°C, day 3): 0.2%
drug dissociation ratio ([1]; pH 7.4, 36°C, day 4): 1.5%
drug dissociation ratio ([1]; pH 7.4, 36°C, day 5): 2.1%
drug dissociation ratio ([1]; pH 7.4, 36°C, day 6): 1.9%
drug dissociation ratio ([1]; pH 7.4, 36°C, day 7): 0.6%
drug dissociation ratio ([1]; pH 8.0, 36°C, day 0): 0.0%
drug dissociation ratio ([1]; pH 8.0, 36°C, day 1): 0.5%
drug dissociation ratio ([1]; pH 8.0, 36°C, day 2): 0.7%
drug dissociation ratio ([1]; pH 8.0, 36°C, day 3): 1.1%
drug dissociation ratio ([1]; pH 8.0, 36°C, day 4): 2.8%
drug dissociation ratio ([1]; pH 8.0, 36°C, day 5): 3.8%
drug dissociation ratio ([1]; pH 8.0, 36°C, day 6): 4.3%
drug dissociation ratio ([1]; pH 8.0, 36°C, day 7): 2.8%

Chondroitin Sulfate Introduced with 21-β-Alanyl-Betamethasone [Compound ia]
Tmax [2]: 4 h
T1/2 (disappearance half life) ([3]; dissociated betamethasone in pulmonary tissue, intratracheal 100 μL of 3 mg/mL): 128.0 h
time after administration until which exposure of betamethasone was observed in pulmonary tissue ([3]; intratracheal, final evaluation time point 168 hours, lower limit for quantification 10 ng/g): 168 h
T1/2 [4]: 146.9 h
Dissociation ratio (%/day) ([1]; pH 7.4, 36°C): 0.8 %/day
drug dissociation ratio ([1]; pH 7.4, 36°C, day 0): 0.0%
drug dissociation ratio ([1]; pH 7.4, 36°C, day 1): 0.8%
drug dissociation ratio ([1]; pH 7.4, 36°C, day 2): 1.5%
drug dissociation ratio ([1]; pH 7.4, 36°C, day 3): 2.3%
drug dissociation ratio ([1]; pH 7.4, 36°C, day 4): 3.2%
drug dissociation ratio ([1]; pH 7.4, 36°C, day 5): 4.0%
drug dissociation ratio ([1]; pH 7.4, 36°C, day 6): 4.6%
drug dissociation ratio ([1]; pH 7.4, 36°C, day 7): 5.3%
Dissociation ratio (%/day) ([1]; pH 8.0, 36°C): 2.4 %/day
drug dissociation ratio ([1]; pH 8.0, 36°C, day 0): 0.0%
drug dissociation ratio ([1]; pH 8.0, 36°C, day 1): 2.9%
drug dissociation ratio ([1]; pH 8.0, 36°C, day 2): 5.2%
drug dissociation ratio ([1]; pH 8.0, 36°C, day 3): 7.7%
drug dissociation ratio ([1]; pH 8.0, 36°C, day 4): 10.6%
drug dissociation ratio ([1]; pH 8.0, 36°C, day 5): 12.8%
drug dissociation ratio ([1]; pH 8.0, 36°C, day 6): 14.8%
drug dissociation ratio ([1]; pH 8.0, 36°C, day 7): 16.7%
Cmax [5]: 10.1 ng/mL
Tmax [5]: 4 h

Chondroitin Sulfate Introduced with Betamethasone [Compound xxi]
Dissociation ratio (%/day) ([1]; pH 7.4, 36°C): 2.7 %/day
Dissociation ratio (%/day) ([1]; pH 7.5, 36°C): 2.6 %/day
drug dissociation ratio ([1]; pH 7.5, 36°C, day 0): 0.0%
drug dissociation ratio ([1]; pH 7.5, 36°C, day 1): 5.1%
drug dissociation ratio ([1]; pH 7.5, 36°C, day 2): 7.7%
drug dissociation ratio ([1]; pH 7.5, 36°C, day 3): 10.1%
drug dissociation ratio ([1]; pH 7.5, 36°C, day 4): 12.2%
drug dissociation ratio ([1]; pH 7.5, 36°C, day 5): 14.2%
drug dissociation ratio ([1]; pH 7.5, 36°C, day 6): 16.3%
drug dissociation ratio ([1]; pH 7.5, 36°C, day 7): 18.2%
Dissociation ratio (%/day) ([1]; pH 8.0, 36°C): 3.9 %/day
Dissociation ratio (%/day) ([1]; pH 8.1, 36°C): 3.6 %/day
drug dissociation ratio ([1]; pH 8.1, 36°C, day 0): 0.0%
drug dissociation ratio ([1]; pH 8.1, 36°C, day 1): 7.2%
drug dissociation ratio ([1]; pH 8.1, 36°C, day 2): 10.2%
drug dissociation ratio ([1]; pH 8.1, 36°C, day 3): 13.8%
drug dissociation ratio ([1]; pH 8.1, 36°C, day 4): 17.0%
drug dissociation ratio ([1]; pH 8.1, 36°C, day 5): 20.8%
drug dissociation ratio ([1]; pH 8.1, 36°C, day 6): 23.2%
drug dissociation ratio ([1]; pH 8.1, 36°C, day 7): 25.4%

Chondroitin Sulfate Introduced with High Amount of 21-β-Alanyl-Betamethasone [Compound ib]
Dissociation ratio (%/day) ([1]; pH 7.4, 36°C): 0.7 %/day
drug dissociation ratio ([1]; pH 7.4, 36°C, day 0): 0.5%
drug dissociation ratio ([1]; pH 7.4, 36°C, day 1): 1.2%
drug dissociation ratio ([1]; pH 7.4, 36°C, day 2): 1.7%
drug dissociation ratio ([1]; pH 7.4, 36°C, day 3): 2.4%
drug dissociation ratio ([1]; pH 7.4, 36°C, day 4): 3.2%
drug dissociation ratio ([1]; pH 7.4, 36°C, day 5): 3.8%
drug dissociation ratio ([1]; pH 7.4, 36°C, day 6): 4.4%
drug dissociation ratio ([1]; pH 7.4, 36°C, day 7): 5.0%
Dissociation ratio (%/day) ([1]; pH 8.0, 36°C): 2.1 %/day
drug dissociation ratio ([1]; pH 8.0, 36°C, day 0): 0.6%
drug dissociation ratio ([1]; pH 8.0, 36°C, day 1): 2.9%
drug dissociation ratio ([1]; pH 8.0, 36°C, day 2): 4.8%
drug dissociation ratio ([1]; pH 8.0, 36°C, day 3): 6.7%
drug dissociation ratio ([1]; pH 8.0, 36°C, day 4): 9.4%
drug dissociation ratio ([1]; pH 8.0, 36°C, day 5): 11.4%
drug dissociation ratio ([1]; pH 8.0, 36°C, day 6): 13.2%
drug dissociation ratio ([1]; pH 8.0, 36°C, day 7): 15.0%

Chondroitin Sulfate Introduced with 21-(α-N-Acetyl)-Ornithyl-Betamethasone [Compound xiii]
Dissociation ratio (%/day) ([1]; pH 7.4, 36°C): 1.8 %/day
Dissociation ratio (%/day) ([1]; pH 7.5, 36°C): 1.9 %/day
drug dissociation ratio ([1]; pH 7.5, 36°C, day 0): 0.5%
drug dissociation ratio ([1]; pH 7.5, 36°C, day 1): 4.8%
drug dissociation ratio ([1]; pH 7.5, 36°C, day 2): 6.6%
drug dissociation ratio ([1]; pH 7.5, 36°C, day 3): 8.5%
drug dissociation ratio ([1]; pH 7.5, 36°C, day 4): 9.7%
drug dissociation ratio ([1]; pH 7.5, 36°C, day 5): 10.8%
drug dissociation ratio ([1]; pH 7.5, 36°C, day 6): 12.2%
drug dissociation ratio ([1]; pH 7.5, 36°C, day 7): 13.2%
Dissociation ratio (%/day) ([1]; pH 8.0, 36°C): 3.3 %/day
Dissociation ratio (%/day) ([1]; pH 8.1, 36°C): 3.4 %/day
drug dissociation ratio ([1]; pH 8.1, 36°C, day 0): 0.7%
drug dissociation ratio ([1]; pH 8.1, 36°C, day 1): 7.5%
drug dissociation ratio ([1]; pH 8.1, 36°C, day 2): 11.2%
drug dissociation ratio ([1]; pH 8.1, 36°C, day 3): 14.1%
drug dissociation ratio ([1]; pH 8.1, 36°C, day 4): 17.2%
drug dissociation ratio ([1]; pH 8.1, 36°C, day 5): 19.7%
drug dissociation ratio ([1]; pH 8.1, 36°C, day 6): 21.8%
drug dissociation ratio ([1]; pH 8.1, 36°C, day 7): 23.9%

Chondroitin Sulfate Introduced with 21-β-Alanyl-Prednisolone [Compound xiv]
Dissociation ratio (%/day) ([1]; pH 7.4, 36°C): 2.3 %/day
Dissociation ratio (%/day) ([1]; pH 7.5, 36°C): 2.3 %/day
drug dissociation ratio ([1]; pH 7.5, 36°C, day 0): 0.3%
drug dissociation ratio ([1]; pH 7.5, 36°C, day 1): 3.4%
drug dissociation ratio ([1]; pH 7.5, 36°C, day 2): 5.7%
drug dissociation ratio ([1]; pH 7.5, 36°C, day 3): 8.1%
drug dissociation ratio ([1]; pH 7.5, 36°C, day 4): 10.4%
drug dissociation ratio ([1]; pH 7.5, 36°C, day 5): 12.4%
drug dissociation ratio ([1]; pH 7.5, 36°C, day 6): 14.5%
drug dissociation ratio ([1]; pH 7.5, 36°C, day 7): 16.3%
Dissociation ratio (%/day) ([1]; pH 8.0, 36°C): 5.4 %/day
Dissociation ratio (%/day) ([1]; pH 8.1, 36°C): 5.4 %/day
drug dissociation ratio ([1]; pH 8.1, 36°C, day 0): 0.3%
drug dissociation ratio ([1]; pH 8.1, 36°C, day 1): 8.2%
drug dissociation ratio ([1]; pH 8.1, 36°C, day 2): 14.3%
drug dissociation ratio ([1]; pH 8.1, 36°C, day 3): 20.4%
drug dissociation ratio ([1]; pH 8.1, 36°C, day 4): 26.1%
drug dissociation ratio ([1]; pH 8.1, 36°C, day 5): 29.8%
drug dissociation ratio ([1]; pH 8.1, 36°C, day 6): 34.4%
drug dissociation ratio ([1]; pH 8.1, 36°C, day 7): 38.0%

Chondroitin Sulfate Introduced with 21-Alanyl-Betamethasone [Compound ix]
Dissociation ratio (%/day) ([1]; pH 7.4, 36°C): 1.6 %/day
drug dissociation ratio ([1]; pH 7.4, 36°C, day 0): 0.4%
drug dissociation ratio ([1]; pH 7.4, 36°C, day 1): 2.0%
drug dissociation ratio ([1]; pH 7.4, 36°C, day 2): 3.6%
drug dissociation ratio ([1]; pH 7.4, 36°C, day 3): 5.3%
drug dissociation ratio ([1]; pH 7.4, 36°C, day 4): 8.7%
drug dissociation ratio ([1]; pH 7.4, 36°C, day 5): 11.0%
drug dissociation ratio ([1]; pH 7.4, 36°C, day 6): 12.2%
drug dissociation ratio ([1]; pH 7.4, 36°C, day 7): 11.5%
Dissociation ratio (%/day) ([1]; pH 8.0, 36°C): 4.2 %/day
drug dissociation ratio ([1]; pH 8.0, 36°C, day 0): 1.7%
drug dissociation ratio ([1]; pH 8.0, 36°C, day 1): 6.3%
drug dissociation ratio ([1]; pH 8.0, 36°C, day 2): 10.9%
drug dissociation ratio ([1]; pH 8.0, 36°C, day 3): 16.1%
drug dissociation ratio ([1]; pH 8.0, 36°C, day 4): 21.7%
drug dissociation ratio ([1]; pH 8.0, 36°C, day 5): 26.1%
drug dissociation ratio ([1]; pH 8.0, 36°C, day 6): 28.3%
drug dissociation ratio ([1]; pH 8.0, 36°C, day 7): 29.3%

Like-named read-outs stand apart in the source and are kept apart here.
